Data published in PMC9995496, “A screen for MeCP2-TBL1 interaction inhibitors using a luminescence-based assay” (Scientific Reports, 2023).

System: PRKACA-PRKAR2A interaction (SmBiT-PRKACA / LgBiT-PRKAR2A), protein kinase A
Settings: counter-screen for NanoLuc interference; 0.5 h, 20 µM; inhibitor

## N[C@@H](Cc1ccc([N+]([O-])(CCCl)CCCl)cc1)C(=O)O
  Inh (PKA): 2.87%
